This passage reports Activity and IC50 results from ChEMBL document CHEMBL1799934, “Irreversible Nek2 kinase inhibitors with cellular activity” (J Med Chem, 2011).

Sequences of proteins named here, by UniProt entry; tags and fusion partners are left off.
UniProt P06493, whole entry: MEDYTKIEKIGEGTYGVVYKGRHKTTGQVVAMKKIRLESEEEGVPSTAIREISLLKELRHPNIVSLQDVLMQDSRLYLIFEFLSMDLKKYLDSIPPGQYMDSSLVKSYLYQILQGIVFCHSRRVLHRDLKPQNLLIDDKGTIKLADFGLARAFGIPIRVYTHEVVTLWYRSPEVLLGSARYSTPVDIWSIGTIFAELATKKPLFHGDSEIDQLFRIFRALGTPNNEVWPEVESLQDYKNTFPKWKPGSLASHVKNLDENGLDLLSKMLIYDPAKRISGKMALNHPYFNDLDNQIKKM

By IC50 is commonly meant the concentration that gives 50% inhibition.

The subject of assay [1] is A549. Put plainly: Antimitotic activity in monastrol-arrested human A549 cells assessed as cells that exit mitosis arrest at 5 uM after 45 mins by immunofluorescence microscopic analysis. The assay is classed as functional. In outline: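 A549 cells grown on poly-lysine coverslips for 24 h, arrested with 100 μM monastrol for 18 h, then exposed to 5 μM inhibitor with monastrol still present for 45 min. Cells fixed and immunostained for phospho-Ser10 histone H3, chromatin and tubulin. Percentage of cells that exited mitosis scored by microscopy, >75 cells counted per condition.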

For assay [2], the target named is Cyclin-dependent kinase 1/cyclin B1 (Homo sapiens, UniProt P06493). In words: Inhibition of human Cdk1/cyclinB using histone H1 as a substrate and [gamma-32P]ATP. The assay is classed as protein-complex assay. In outline:
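Cdk1/cyclin B (2 nM) pre-incubated 30 min at room temperature with inhibitor in HEPES pH 7.5, MgCl2, EDTA, BSA, 3% DMSO, 38 μM ATP. Kinase reaction started with 0.2 mg/mL histone H1 plus 4 μCi [γ-32P]ATP and run 30 min at room temperature. Spotted onto nitrocellulose for radioactive read-out. IC50 is the mean of three determinations; the pre-incubation time was held fixed.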

Assay [3] concerns the target T1, Serine/threonine-protein kinase Nek2 (Homo sapiens, UniProt P51955).
T1 sequence (P51955 whole entry): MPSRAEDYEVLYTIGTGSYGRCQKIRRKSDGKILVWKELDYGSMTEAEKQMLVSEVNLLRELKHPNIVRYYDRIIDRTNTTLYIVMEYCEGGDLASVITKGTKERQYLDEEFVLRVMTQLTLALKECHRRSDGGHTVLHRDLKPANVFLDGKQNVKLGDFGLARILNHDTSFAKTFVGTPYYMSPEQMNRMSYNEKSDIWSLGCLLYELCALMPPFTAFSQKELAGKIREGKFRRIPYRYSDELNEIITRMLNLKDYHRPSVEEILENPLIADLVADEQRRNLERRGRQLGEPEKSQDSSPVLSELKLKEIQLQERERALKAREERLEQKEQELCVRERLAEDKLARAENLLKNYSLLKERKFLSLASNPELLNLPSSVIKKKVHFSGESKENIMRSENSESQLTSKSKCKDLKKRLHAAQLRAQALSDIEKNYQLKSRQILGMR
Put plainly: Inhibition of human Nek2 in using [gamma-32P] ATP.

On to `C#CC(=O)Nc1ccc2c(c1)/C(=C/c1[nH]c(CC)nc1C)C(=O)N2`, for which the Activity in assay [1] was 4%.
With `CCc1nc(C)c(/C=C2\C(=O)N(C)c3ccc(C(=O)CCl)cc32)[nH]1.Cl`, the concentration for half-maximal inhibition (IC50) was greater than 20 µM in assay [2] and 4.9 µM in assay [3].
